From ChEMBL document CHEMBL1156827, “Benzimidazole derivatives as new serotonin 5-HT6 receptor antagonists. Molecular mechanisms of receptor inactivation” (J Med Chem, 2010)

Amino acid sequences for entries named in this document (tags omitted).
UniProt P50406, whole entry: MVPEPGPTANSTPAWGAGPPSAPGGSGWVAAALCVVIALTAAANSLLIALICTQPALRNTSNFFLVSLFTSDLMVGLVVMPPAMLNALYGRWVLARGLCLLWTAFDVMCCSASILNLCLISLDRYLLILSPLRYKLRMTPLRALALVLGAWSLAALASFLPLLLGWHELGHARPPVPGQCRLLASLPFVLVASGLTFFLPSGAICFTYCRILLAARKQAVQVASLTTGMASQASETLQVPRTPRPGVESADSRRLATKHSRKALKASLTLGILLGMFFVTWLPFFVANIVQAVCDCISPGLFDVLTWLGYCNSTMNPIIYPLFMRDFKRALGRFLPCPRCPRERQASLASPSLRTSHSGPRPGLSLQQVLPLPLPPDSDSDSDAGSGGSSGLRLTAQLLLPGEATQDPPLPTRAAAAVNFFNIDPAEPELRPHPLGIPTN
UniProt Q9R1C8, whole entry: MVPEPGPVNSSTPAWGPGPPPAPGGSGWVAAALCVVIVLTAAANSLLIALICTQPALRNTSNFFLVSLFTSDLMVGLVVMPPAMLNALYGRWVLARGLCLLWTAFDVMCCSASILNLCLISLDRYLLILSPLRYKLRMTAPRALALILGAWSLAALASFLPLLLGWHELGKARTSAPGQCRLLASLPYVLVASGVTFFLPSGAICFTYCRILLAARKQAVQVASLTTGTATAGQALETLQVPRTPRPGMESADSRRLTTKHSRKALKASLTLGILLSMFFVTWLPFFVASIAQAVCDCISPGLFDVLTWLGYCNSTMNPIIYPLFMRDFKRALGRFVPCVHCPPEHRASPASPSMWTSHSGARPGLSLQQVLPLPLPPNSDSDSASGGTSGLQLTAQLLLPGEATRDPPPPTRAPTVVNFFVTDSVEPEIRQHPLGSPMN
UniProt Q9R1C8, whole entry C110A: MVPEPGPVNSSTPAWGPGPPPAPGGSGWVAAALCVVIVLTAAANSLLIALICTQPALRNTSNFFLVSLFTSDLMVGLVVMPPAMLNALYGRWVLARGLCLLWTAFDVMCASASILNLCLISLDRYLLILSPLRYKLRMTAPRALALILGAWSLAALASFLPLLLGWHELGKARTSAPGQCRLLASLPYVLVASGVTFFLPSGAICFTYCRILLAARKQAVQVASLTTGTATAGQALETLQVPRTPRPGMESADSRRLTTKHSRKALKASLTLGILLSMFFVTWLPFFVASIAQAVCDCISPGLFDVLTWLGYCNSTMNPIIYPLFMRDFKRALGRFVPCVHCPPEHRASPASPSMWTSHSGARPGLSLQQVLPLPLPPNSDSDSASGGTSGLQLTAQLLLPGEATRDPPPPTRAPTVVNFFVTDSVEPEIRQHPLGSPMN

Tests used:
Type in all cases: functional, cell-based, COS-7
[1] = molecular target: 5-hydroxytryptamine receptor 6 (Homo sapiens, UniProt P50406); test: Antagonist activity at human 5HT6 receptor expressed in COS7 cells assessed as inhibition of serotonin-induced cAMP accumulation by HTRF assay
Outline: (§1)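 COS-7 cells were transfected with wild-type or mutant receptor cDNA and seeded at 100000 cells/well. At 24 h post-transfection, cells were stimulated for 10 min at 37 °C with eight concentrations of test ligand plus 100 μM 5-HT. cAMP was read by HTRF. […] Three independent experiments in triplicate, mean ± SEM.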

[2] = molecular target: 5-hydroxytryptamine receptor 6 (Mus musculus, UniProt Q9R1C8); test: Antagonist activity at mouse wild type 5HT6 receptor expressed in COS7 cells assessed as inhibition of serotonin-induced cAMP accumulation by HTRF assay; outline: as §1
[3] = molecular target: 5-hydroxytryptamine receptor 6 (Mus musculus, UniProt Q9R1C8, C110A); test: Antagonist activity at mouse 5HT6 receptor C3.36A mutant expressed in COS7 cells assessed as inhibition of serotonin-induced cAMP accumulation by HTRF assay; outline: as §1

Ki [1]: 5 nM | Ki [2]: 5 nM | Ki [3]: 34 nM
SMILES: CN1CCN(c2cccc3[nH]c(C(=O)c4cccc5ccccc45)nc23)CC1
